The values below are quoted from earlier work in patent US20190015335A1, “HEPATOPROTECTIVE PARTICLES AND SYSTEMS AND METHODS OF USE THEREOF” (South Dakota Board of Regents, priority 2017, published 2019).

This data set has as its target T1, FXR (farnesoid X receptor) of hepatocytes (Homo sapiens, UniProt Q96RI1).
T1 construct: host or cells: human hepatocytes
T1 sequence (Q96RI1 1-486): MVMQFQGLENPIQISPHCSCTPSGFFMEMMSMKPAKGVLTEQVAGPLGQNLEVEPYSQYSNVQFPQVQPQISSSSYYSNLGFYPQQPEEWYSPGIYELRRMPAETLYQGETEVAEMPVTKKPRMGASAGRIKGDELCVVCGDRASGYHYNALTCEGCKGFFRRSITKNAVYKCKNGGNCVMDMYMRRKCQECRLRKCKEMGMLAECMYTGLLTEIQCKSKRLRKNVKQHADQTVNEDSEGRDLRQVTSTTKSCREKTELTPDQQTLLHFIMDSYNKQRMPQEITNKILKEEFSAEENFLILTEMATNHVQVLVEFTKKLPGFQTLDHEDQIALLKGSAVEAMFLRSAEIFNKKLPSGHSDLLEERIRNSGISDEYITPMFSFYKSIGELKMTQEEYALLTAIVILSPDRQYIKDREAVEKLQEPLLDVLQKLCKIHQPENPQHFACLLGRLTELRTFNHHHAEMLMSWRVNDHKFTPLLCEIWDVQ
Conditions: activation of FXR; cited from earlier work.

In the case of `CC(C)c1onc(-c2c(Cl)cccc2Cl)c1COc1ccc(/C=C/c2cccc(C(=O)O)c2)c(Cl)c1` [GW4064], the “protection of human hepatocytes against chemotherapeutics-induced toxicity” value was “increases the protection of human hepatocytes against chemotherapeutics-induced toxicity”.
